The text below walks through data of patent US9750738B2, “Arylpiperazine opioid receptor antagonists” (RESEARCH TRIANGLE INSTITUTE, priority 2010, dated 2017).

Sequences of proteins named here, by UniProt entry; tags and fusion partners are left off. A change or cut given only in a name is not applied to a line headed by its entry.
UniProt P35372, whole entry: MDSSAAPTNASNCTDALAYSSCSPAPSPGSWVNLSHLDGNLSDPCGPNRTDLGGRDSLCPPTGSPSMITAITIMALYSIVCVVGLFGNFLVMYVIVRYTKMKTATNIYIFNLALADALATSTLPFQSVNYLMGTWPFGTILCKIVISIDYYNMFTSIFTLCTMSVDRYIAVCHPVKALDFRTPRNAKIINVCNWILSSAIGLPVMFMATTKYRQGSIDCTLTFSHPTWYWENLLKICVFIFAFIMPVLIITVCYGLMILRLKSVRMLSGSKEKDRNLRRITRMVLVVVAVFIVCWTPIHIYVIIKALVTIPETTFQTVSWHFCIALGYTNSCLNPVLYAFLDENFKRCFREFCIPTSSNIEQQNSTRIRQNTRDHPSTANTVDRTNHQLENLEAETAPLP
UniProt P41145: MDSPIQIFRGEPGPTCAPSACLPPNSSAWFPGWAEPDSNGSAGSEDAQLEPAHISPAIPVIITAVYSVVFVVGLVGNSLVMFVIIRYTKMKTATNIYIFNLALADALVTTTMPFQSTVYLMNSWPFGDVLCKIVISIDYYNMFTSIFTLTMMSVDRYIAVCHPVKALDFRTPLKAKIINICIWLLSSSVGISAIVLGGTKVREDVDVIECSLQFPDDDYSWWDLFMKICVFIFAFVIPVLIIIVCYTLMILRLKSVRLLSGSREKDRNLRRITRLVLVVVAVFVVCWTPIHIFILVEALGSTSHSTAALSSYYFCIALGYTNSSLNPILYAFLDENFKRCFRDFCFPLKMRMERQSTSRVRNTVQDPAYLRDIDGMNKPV

The structures appear in SMILES notation.

The target of experiment [1] is T1, cloned human μ opioid receptor (Homo sapiens, UniProt P35372).
T1 construct: expressed in transfected cells
As to the kind of experiment: Inhibition of DAMGO-stimulated [35S]GTPγS binding. The note with it: antagonism of agonist DAMGO. Type of experiment: biochemical. An excerpt: Measures of opioid receptor antagonism and specificity were obtained by monitoring the ability of selected test compounds to inhibit stimulation of [^35S]GTPγS binding produced by the selective agonists (D-Ala^2,MePhe^4,Gly-ol^5)enkephalin (DAMGO, mu receptor) cyclo[D-Pen^2,D-Pen^5]enkephalin (DPDPE, delta) and 5,7,8-(-)-N-methyl-N-[7-(1-pyrrolidinyl)-1-oxaspiro[4,5]dec-8-yl]benzeneacetamide (U69,593, kappa) in cloned human receptors (Table 1).

Experiment [2] deals with T2, cloned human κ opioid receptor (Homo sapiens, UniProt P41145).
T2 construct: expressed in transfected cells
The experiment is described as follows: Inhibition of U69,593-stimulated [35S]GTPγS binding. Type of experiment: biochemical. A general note: GTPγS is a poorly hydrolysed GTP analogue; its binding reports G protein activation.

On to `CC1CN(CCCc2ccccc2)CC(C)N1c1cccc(O)c1` (stereo not drawn) [Compound 5d, (Z)-3-(2,6-Dimethyl-4-(3-phenylpropyl)piperazin-1-yl)phenol], for which the “μ, DAMGO Ke” value in experiment [1] was found to be 3 nM.

On to `Oc1ccc2c3c1O[C@H]1c4[nH]c5c(c4C[C@@]4(O)[C@@H](C2)N(CC2CC2)CC[C@]314)C[C@@]1(O)[C@H]2Cc3ccc(O)c4c3[C@@]1(CCN2CC1CC1)[C@H]5O4` [norBNI, reference compound], for which, in experiment [2] (antagonism of agonist U69,593, [35S]GTPγS binding), the “κ, U69,593 ke” value is 0.05 ± 0.02 nM. The δ/κ in experiment [2] (ratio of Ke values, δ over κ) is on record as 580.
